# AlphaSeq binding of Ab-14 light chain variants to a spike HR2 peptide

The target is the same throughout: PDVDLGDISGINAS, from the HR2 region of SARS-CoV-2 spike.

The variants keep the heavy chain, the linker and the frameworks of Ab-14 (scFv order VH, a 15-residue (Gly4Ser)3 linker, VL).
VH: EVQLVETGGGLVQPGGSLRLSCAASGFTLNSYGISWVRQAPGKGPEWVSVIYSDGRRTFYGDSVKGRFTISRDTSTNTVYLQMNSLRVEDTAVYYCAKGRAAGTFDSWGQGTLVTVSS
VL: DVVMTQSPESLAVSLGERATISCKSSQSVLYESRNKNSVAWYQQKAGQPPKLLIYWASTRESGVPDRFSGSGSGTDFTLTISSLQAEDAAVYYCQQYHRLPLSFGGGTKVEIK

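The parent was found by panning a naive human phage display library on the peptide. The variants were designed computationally from a first round of random CDR variants and then made and measured. Their group label is 14L_En_Gibbs (En: ensemble of fine-tuned language models; Gibbs: Gibbs sampling). The assay is AlphaSeq: two haploid yeast populations carry antibody and antigen on their surface. After mating in shaken culture at 30 °C for 16 h, diploids were selected and their barcode pairs sequenced. The ratio of observed to expected reads was calibrated, replicate by replicate, on BCL2-family standards whose Kd was known from biolayer interferometry. Mating was done six times.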

Each variant is given by its three light chain CDRs, as the data file delimits them; those of the parent are KSSQSVLYESRNKNSVA, WASTRES, QQYHRLPLS. Scale: log10 of Kd in nM, estimated from mating counts; low values are strong binders. A pair that was not seen in that replicate is written "nd"; this usually means weak binding, but a binder can also be missed. The range of this assay differs from that of the first round, and the authors advise against merging the two.

With VIDAFNFSNGQKWNNVA / QTSVRLQ / QSYQRLPLM the result was 1.57, 1.20, 1.06, 1.17, 1.45, 1.32 (controls 4 of 18).
With HMRHEFYGYWNYDQAVA / HANQRLN / QQYSRLPLS the result was 0.74, 2.02, 1.92, nd, 2.45, nd (controls 0 of 18).
With RIQDHMAVGTMSHSSIA / EEATVMD / QQYSRLPLA the result was 1.33, 1.15, 1.72, 1.73, 1.52, 1.43 (controls 0 of 18).
With MINMEIGIEDRKWQAVA / SASVRAS / QQYGRLPFS the result was nd, nd, nd, nd, nd, nd (controls 0 of 18).
With ALQMERLGQKQYQNNIA / NQDIRTA / QQYYMLPLV the result was -0.09, -0.55, -0.08, -0.46, -0.46, 0.05 (controls 0 of 18).
With MFSYNLHDMGRNKNSVA / EMNKSTT / QDYHRLPLA the result was 1.62, 1.58, 0.63, 0.92, 0.79, 1.28 (controls 2 of 18).
With KVEEEGDVFARNDNSVA / EMSMVLD / QQYHRLPLA the result was 2.07, 1.41, 1.57, 1.24, 1.61, 1.62 (controls 0 of 18).
With QFHSTMIGDQRNVHSIA / NATAAVP / QYYFRLPLS the result was 0.74, 0.34, 0.32, 0.26, -0.26, 0.24 (controls 1 of 18).
With HIDILNRGETLKKDDIA / NADHREQ / QQYFHLPLA the result was 0.31, 0.33, 0.09, 0.01, 0.33, 0.39 (controls 0 of 18).
With MLTISGDETHEKAFSIA / NVTNKAY / QQYARLPLT the result was 0.57, 0.68, 0.21, -0.02, 0.57, 0.78 (controls 0 of 18).
With ALALTLWQVDSQMNNIA / EGMLRES / QQYNRLPLN the result was 2.15, nd, 2.86, 2.61, 2.24, 3.53 (controls 1 of 18).
With KITDKFLTEGNGRQNIA / HAMVALE / QQYQQLPLA the result was 0.83, 0.26, 0.06, 0.53, 0.62, 0.23 (controls 0 of 18).
With SLYENYQMGGLHTNAIA / DANQMMR / QHYNRLPLA the result was 0.81, 0.05, -0.36, 0.06, 0.22, 0.54 (controls 0 of 18).
With KVAQGIYEEKRHSHNIA / EVSHLCD / QQYARLPLE the result was 0.37, 0.01, 0.32, -0.47, 0.22, 0.24 (controls 0 of 18).
With TLKMTKLPGQVNAYNIA / NAELVEN / QQYFHLPLY the result was 2.63, 0.46, 1.52, 1.36, 1.85, 1.87 (controls 1 of 18).
With KVSQGIFDGKRNSHSIA / EVSELCT / QQYSRLPLE the result was 0.65, 0.18, 0.59, 0.51, 0.40, 0.41 (controls 0 of 18).
With KLGGEQQNSTYEKDNVA / DVNTTYE / QHYSRLPLT the result was nd, nd, 2.49, 2.81, nd, nd (controls 1 of 18).
With QLGDEQVGETLMADNIA / HSDFRAD / QQYFRLPLL the result was 1.05, 0.81, 0.83, 0.29, 0.70, 0.81 (controls 0 of 18).
With QLEQLVWPMGKDWHSIA / NATTLLA / QQYYYLPLM the result was 2.21, nd, 1.67, 2.20, 2.58, 2.47 (controls 0 of 18).
With KLTHPSDSWLEHENSIA / DDNISLT / QQYHQLPLS the result was 1.20, 1.12, 1.34, 1.00, 1.16, 1.16 (controls 0 of 18).
With RLYNQGTDQIQHANSIA / DRDEVDS / QQYAHLPLS the result was 0.72, 0.88, 1.02, 0.87, 1.29, 0.95 (controls 1 of 18).
With QMKDSLSQGIYRQDSVA / SDDIRVL / QQYHHLPLS the result was 1.96, 1.80, 1.12, 0.93, 1.00, 1.19 (controls 0 of 18).
With SLAYTQHFGQAGGSAVA / EVQMREQ / QQYFRLPLG the result was 1.25, 2.59, 2.18, 2.05, nd, 1.79 (controls 0 of 18).
With KLGNQERMNGMANQNVA / AMNTRVD / QEYHRLPLI the result was 0.42, 0.43, 0.34, 0.29, 0.41, 0.51 (controls 0 of 18).
With KLYDEATNRVGTAENIA / EKEISLQ / QQYDRLPLS the result was 1.96, nd, 1.84, nd, 3.33, 1.81 (controls 0 of 18).
With NMRLNEGEIAQHGYNIA / GVDLRAA / QQYARLPLH the result was 0.97, 0.53, 0.75, 0.42, 0.29, 0.76 (controls 2 of 18).
With KLGYTSGGEVNGQHNIA / EMDQLTF / QQYSHLPLS the result was 0.53, 0.60, 0.69, 0.50, 0.54, 0.70 (controls 1 of 18).
With HVSNLYTDEMVREYNIA / ETSHVEE / QQYERLPLI the result was 0.93, 1.41, 0.45, 0.45, 1.54, 1.01 (controls 0 of 18).
With KISYLDYRGSQWHNNIA / EGSQRAE / QQYIRLPLN the result was 1.02, 1.39, 0.22, 0.50, 0.75, 0.69 (controls 0 of 18).
With TFDQMGEHKGMNTNSVA / AGNLVRI / QQYSRLPFS the result was 1.99, 2.00, 1.78, 2.42, 1.31, 1.09 (controls 2 of 18).
With MISMMHAMQYNEESSIA / DAEALNS / QQYHELPLS the result was nd, nd, nd, nd, nd, nd (controls 0 of 18).
With RILYEQFGNTYSVNNVA / QAHVRAY / QMYNRLPLS the result was nd, nd, 2.32, 2.21, 2.47, 3.22 (controls 2 of 18).

Repeated from above, the 5 best binders with a signal in all replicates:

| CDR-L1 | CDR-L2 | CDR-L3 | log10 Kd (nM) by replicate | control signals |
|---|---|---|---|---|
| ALQMERLGQKQYQNNIA | NQDIRTA | QQYYMLPLV | -0.09, -0.55, -0.08, -0.46, -0.46, 0.05 | 0 of 18 |
| KVAQGIYEEKRHSHNIA | EVSHLCD | QQYARLPLE | 0.37, 0.01, 0.32, -0.47, 0.22, 0.24 | 0 of 18 |
| SLYENYQMGGLHTNAIA | DANQMMR | QHYNRLPLA | 0.81, 0.05, -0.36, 0.06, 0.22, 0.54 | 0 of 18 |
| HIDILNRGETLKKDDIA | NADHREQ | QQYFHLPLA | 0.31, 0.33, 0.09, 0.01, 0.33, 0.39 | 0 of 18 |
| QFHSTMIGDQRNVHSIA | NATAAVP | QYYFRLPLS | 0.74, 0.34, 0.32, 0.26, -0.26, 0.24 | 1 of 18 |

Nonspecific signal, from three strains lacking the peptide, appeared in 4% of pairings of all light chain designs, centred on 2.64 (5% of these signals below 1.59); values are not corrected for it. For each scFv, signals with the empty controls are counted beside the result. Of ten entries with the parent sequence, four were seen in most replicates (averages 0.34 to 2.37), three in one and three in none, so single entries are noisy. The authors' rule: three or more of the six replicates give a measured affinity, fewer mean a poor binder.

Values reported by Li et al. 2023, doi:10.1038/s41467-023-39022-2 (FLAb copy).